Assay results from patent publication US20260382605A1, “REVERSIBLE MACROCYCLIC KINASE INHIBITORS” (published 2026).

Chains of the proteins cited; added tags and fusions are not shown. Residues count along the entry.
UniProt P09619, 33-1106 limits assumed: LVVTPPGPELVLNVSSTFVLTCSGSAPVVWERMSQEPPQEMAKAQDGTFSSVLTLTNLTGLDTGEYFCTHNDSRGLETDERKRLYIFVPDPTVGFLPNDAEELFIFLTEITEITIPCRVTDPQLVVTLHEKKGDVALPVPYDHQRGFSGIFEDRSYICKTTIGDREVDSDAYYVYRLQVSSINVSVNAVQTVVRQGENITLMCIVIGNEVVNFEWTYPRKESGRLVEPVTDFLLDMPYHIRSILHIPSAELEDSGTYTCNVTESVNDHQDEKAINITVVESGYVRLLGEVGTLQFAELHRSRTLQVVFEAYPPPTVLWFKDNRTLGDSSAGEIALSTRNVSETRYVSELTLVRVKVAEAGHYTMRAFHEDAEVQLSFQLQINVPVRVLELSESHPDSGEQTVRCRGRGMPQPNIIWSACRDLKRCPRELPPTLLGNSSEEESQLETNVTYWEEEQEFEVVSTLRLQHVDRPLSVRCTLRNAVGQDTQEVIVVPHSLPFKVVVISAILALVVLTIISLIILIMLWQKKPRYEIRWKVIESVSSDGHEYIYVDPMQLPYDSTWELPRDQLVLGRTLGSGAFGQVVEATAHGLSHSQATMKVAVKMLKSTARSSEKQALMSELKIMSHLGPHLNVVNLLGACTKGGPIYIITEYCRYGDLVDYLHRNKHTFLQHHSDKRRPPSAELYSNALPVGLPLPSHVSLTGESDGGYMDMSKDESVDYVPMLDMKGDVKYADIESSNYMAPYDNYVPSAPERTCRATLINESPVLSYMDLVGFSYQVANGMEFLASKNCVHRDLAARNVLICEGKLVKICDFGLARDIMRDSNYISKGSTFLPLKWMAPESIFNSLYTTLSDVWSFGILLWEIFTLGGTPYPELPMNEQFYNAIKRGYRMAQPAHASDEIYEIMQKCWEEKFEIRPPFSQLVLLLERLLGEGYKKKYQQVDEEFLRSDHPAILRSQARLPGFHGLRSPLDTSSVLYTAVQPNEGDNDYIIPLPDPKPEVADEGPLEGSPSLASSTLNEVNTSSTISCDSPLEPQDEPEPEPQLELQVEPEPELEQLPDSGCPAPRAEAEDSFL
UniProt P07949, 29-1114 limits assumed: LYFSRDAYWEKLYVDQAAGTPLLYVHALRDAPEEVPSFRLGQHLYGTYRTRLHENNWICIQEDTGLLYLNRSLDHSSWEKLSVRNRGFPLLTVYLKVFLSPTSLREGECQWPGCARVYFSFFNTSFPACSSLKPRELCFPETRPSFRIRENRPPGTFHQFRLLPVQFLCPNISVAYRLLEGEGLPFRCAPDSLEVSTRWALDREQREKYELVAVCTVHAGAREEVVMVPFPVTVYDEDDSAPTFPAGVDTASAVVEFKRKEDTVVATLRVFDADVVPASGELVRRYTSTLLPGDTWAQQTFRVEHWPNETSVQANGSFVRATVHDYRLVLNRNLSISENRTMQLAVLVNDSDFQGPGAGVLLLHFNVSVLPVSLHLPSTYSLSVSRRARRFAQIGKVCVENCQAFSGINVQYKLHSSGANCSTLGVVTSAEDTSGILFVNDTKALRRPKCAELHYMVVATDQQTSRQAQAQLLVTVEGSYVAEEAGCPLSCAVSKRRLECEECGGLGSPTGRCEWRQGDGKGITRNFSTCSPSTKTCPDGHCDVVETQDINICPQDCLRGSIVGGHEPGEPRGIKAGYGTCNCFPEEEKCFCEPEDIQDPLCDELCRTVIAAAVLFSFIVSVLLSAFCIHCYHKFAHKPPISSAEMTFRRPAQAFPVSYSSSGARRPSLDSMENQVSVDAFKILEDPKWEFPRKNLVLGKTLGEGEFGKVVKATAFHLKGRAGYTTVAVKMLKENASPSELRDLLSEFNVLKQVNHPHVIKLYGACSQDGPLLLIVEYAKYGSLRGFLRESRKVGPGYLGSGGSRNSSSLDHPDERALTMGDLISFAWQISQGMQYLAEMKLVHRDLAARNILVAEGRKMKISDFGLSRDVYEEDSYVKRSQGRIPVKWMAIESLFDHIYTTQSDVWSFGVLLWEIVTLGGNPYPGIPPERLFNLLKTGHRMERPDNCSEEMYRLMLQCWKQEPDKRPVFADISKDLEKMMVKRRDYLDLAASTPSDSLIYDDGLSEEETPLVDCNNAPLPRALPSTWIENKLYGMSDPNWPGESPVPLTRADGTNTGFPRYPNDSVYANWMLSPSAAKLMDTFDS
UniProt P12931, whole entry: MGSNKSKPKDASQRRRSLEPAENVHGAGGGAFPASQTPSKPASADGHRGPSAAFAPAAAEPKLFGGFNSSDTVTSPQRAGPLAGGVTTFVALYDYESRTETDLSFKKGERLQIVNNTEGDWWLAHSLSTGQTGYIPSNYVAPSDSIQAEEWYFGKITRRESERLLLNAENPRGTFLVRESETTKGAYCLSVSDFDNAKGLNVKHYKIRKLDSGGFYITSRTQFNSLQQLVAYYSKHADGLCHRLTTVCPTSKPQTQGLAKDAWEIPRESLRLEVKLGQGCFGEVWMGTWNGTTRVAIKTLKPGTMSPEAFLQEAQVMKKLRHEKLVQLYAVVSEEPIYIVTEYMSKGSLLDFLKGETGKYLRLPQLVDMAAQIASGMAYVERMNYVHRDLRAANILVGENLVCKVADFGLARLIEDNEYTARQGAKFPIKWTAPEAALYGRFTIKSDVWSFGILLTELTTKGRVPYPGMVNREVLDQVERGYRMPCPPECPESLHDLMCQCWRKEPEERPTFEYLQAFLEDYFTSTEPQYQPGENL
UniProt P06239, whole entry: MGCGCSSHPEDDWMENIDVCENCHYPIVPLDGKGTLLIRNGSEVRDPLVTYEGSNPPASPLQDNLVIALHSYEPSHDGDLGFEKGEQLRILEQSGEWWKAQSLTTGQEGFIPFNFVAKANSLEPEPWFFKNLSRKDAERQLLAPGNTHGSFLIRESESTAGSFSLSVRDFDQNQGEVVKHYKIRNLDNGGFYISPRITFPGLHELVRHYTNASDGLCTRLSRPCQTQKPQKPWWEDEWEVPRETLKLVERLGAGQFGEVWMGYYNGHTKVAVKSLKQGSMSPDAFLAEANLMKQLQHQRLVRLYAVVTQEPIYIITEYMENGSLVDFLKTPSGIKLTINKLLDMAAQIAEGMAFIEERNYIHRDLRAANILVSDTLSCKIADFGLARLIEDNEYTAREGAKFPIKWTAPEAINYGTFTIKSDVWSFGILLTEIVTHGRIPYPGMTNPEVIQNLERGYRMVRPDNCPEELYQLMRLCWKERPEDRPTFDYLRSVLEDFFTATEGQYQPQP
UniProt P07947, whole entry: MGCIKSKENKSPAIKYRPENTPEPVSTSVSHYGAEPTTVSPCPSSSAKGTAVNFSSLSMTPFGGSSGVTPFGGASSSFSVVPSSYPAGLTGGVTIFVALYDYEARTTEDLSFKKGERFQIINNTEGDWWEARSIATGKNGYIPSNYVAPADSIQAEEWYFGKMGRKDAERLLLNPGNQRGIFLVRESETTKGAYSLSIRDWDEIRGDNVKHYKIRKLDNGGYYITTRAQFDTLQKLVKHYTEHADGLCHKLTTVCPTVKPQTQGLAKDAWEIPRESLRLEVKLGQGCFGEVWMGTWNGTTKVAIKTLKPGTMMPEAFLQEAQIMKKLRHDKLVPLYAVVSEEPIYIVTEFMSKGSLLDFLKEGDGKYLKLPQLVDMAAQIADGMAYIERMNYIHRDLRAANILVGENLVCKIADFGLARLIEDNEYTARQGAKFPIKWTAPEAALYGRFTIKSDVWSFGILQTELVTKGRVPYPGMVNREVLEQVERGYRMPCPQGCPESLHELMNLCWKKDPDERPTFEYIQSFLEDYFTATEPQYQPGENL
UniProt P30530, 26-894 limits assumed: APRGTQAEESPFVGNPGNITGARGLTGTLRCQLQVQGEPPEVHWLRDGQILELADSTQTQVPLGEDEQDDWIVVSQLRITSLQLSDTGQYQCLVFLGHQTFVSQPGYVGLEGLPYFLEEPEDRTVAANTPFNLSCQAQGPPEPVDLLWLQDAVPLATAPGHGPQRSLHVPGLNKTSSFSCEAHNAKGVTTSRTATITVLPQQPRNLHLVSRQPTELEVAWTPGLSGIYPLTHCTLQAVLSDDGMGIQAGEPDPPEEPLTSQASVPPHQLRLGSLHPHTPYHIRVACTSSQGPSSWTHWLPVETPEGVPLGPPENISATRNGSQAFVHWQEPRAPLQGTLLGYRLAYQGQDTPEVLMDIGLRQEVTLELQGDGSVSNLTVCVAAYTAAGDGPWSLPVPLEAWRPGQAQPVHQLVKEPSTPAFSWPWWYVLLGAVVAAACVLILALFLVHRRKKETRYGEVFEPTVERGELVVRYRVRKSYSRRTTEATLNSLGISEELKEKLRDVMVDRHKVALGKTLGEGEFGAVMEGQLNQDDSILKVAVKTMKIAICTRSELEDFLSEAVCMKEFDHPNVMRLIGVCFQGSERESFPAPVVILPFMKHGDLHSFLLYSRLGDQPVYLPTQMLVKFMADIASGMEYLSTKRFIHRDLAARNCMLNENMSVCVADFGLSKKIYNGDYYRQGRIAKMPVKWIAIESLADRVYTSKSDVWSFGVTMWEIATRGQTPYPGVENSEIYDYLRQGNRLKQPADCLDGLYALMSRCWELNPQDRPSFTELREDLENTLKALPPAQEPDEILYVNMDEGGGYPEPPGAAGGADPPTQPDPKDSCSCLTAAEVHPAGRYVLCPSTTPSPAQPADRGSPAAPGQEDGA
UniProt Q08881, whole entry: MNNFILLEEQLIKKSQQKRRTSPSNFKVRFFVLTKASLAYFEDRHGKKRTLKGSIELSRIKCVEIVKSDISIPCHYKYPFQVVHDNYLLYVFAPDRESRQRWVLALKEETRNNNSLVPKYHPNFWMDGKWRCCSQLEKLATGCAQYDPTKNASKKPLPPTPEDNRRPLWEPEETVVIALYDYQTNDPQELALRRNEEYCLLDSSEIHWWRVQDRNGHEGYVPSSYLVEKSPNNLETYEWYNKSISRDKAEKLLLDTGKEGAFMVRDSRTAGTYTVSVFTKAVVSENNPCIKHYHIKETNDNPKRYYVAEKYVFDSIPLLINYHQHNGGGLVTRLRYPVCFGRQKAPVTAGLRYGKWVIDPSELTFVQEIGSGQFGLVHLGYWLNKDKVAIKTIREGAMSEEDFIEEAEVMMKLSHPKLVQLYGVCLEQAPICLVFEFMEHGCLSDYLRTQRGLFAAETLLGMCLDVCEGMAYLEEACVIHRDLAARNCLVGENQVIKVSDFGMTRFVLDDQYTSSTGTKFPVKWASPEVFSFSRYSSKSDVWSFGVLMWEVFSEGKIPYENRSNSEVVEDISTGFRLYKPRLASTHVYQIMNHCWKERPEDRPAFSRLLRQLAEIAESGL
UniProt P00533, 25-1210 limits assumed: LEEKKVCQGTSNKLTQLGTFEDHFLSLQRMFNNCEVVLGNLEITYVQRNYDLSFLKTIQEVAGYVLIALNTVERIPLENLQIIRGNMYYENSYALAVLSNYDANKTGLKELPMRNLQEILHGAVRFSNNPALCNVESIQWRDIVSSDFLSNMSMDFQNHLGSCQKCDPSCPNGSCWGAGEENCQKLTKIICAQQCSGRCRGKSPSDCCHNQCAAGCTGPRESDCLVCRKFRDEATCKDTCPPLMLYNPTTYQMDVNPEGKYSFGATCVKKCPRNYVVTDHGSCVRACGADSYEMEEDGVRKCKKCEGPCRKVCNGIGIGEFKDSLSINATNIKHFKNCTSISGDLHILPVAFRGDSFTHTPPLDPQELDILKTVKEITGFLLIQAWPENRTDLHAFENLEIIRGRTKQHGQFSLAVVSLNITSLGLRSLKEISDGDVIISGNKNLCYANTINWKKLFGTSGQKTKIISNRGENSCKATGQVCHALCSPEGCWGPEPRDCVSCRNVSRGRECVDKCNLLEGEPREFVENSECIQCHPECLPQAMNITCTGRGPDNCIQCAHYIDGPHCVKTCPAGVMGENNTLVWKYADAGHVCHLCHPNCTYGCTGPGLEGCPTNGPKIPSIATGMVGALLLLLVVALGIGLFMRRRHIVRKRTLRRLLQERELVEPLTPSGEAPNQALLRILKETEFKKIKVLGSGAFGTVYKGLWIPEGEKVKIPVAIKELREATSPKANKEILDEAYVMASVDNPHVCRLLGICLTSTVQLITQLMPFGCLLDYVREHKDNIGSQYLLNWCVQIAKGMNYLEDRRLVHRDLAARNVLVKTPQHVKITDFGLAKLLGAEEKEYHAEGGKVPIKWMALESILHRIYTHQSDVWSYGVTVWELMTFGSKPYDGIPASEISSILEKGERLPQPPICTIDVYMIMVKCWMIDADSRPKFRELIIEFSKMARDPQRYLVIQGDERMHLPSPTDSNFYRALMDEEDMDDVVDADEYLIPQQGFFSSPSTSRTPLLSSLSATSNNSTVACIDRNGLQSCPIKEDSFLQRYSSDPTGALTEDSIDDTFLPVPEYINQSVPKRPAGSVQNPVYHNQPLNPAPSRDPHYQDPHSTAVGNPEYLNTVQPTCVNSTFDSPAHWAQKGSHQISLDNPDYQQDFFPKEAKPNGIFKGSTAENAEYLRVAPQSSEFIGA

What was measured:
Fms = Fms (Homo sapiens, UniProt P07333); test: Binding kinetics assay (surface plasmon resonance) FMS; settings: SPR, 22 °C
Excerpt: (§1) Binding Kinetics Assay wt-BTK, BTK C481S, LCK, FGFR1, FLT3, PDGFR-β, FMS, LYN, MEK1, AUR-B. ITK. VEGFR, EGFR, FGFR3, AXL, c-MET, SRC, YES, ABL, RET and IGFR1 (Surface Plasmon Resonance)
(§2) Streptavidin-coated chips (Cat. No. BR100531), disposables and maintenance kits for Biacore were purchased from Cytiva (Eindhoven, The Netherlands). Biotinylated wt-BTK enzym (Carna Biosciences, cat. no. 08-480-20N), BTK C481S (Carna Biosciences, cat. no. 08-417-20N), LCK (Carna Biosciences, cat. no. 08-470-20N), FGFR1 (Carna Biosciences, cat. no. 08-435-20N), FLT3 (Carna Biosciences, cat. no. 08-454-20N), PDGFR-β (Carna Biosciences, cat. no. 08-458-20N), FMS (Carna Biosciences, cat. no. 08-455-20N), LYN (Carna Biosciences, cat. no. 08-471-20N), MEK1 (Carna Biosciences, cat. no. 07-441-10-20N), AUR-B (Carna Biosciences, cat. no. 05-402-21N), ITK (Carna Biosciences, cat. no. 08-481-20N), VEGFR (Carna Biosciences, cat. no. 08-491-20N), EGFR (Carna Biosciences, cat. no. 08-415-20N), FGFR3 (Carna Biosciences, cat. no. 08-433-20N), AXL (Carna Biosciences, cat. no. 08-407-20N), c-MET (Carna Biosciences, cat. no. 08-451-20N), SRC (Carna Biosciences, cat. no. 08-473-20N), YES (Carna Biosciences, cat. no. 08-475-20N), ABL (Carna Biosciences, cat. no. 08-401-20N), RET (Carna Biosciences, cat. no. 08-459-20N) or IGFR1 (Carna Biosciences, cat. no. 08-441-20N) were immobilized on a streptavidin-coated chip to a level of about 8000 resonance units (RU) using Biacore buffer (50 mM Tris pH 7.5, 0.05% (v/v) Tween-20, 150 mM NaCl and 5 mM MgCl2)+1 mM TCEP. Remaining streptavidin was blocked with biocytin. Immobilization was performed at 4 °C. Subsequent assay steps were conducted at 22 °C. After changing buffer to Biacore buffer with 1% (v/v) dimethylsulfoxide (DMSO), a pre-run was performed for a period of at least 30 min at a flow rate of 30 μl/min to obtain a stable surface. The kinetic constants of the compounds were determined with single cycle kinetics with five consecutive injections with an increasing compound concentration with ranges of 3.16-316 nM. Experiments were performed with an association time of 100 s per concentration and a dissociation time of 1200 s, except for compounds with a long target residence time, such as irreversible inhibitors, where dissociation time was increased. To circumvent problems of mass transport limitation, a flow rate of 30 μl/min was used. A blank run with the same conditions was performed before the compound was injected. The SPR sensorgrams were analyzed with Biacore Evaluation Software by using a method of double referencing. First the reference channel was subtracted from the channel containing immobilized protein. Subsequently, the reference curve obtained with buffer injections was subtracted. The resulting curve was fitted with a 1:1 binding model. Compounds that bound according to an induced fit model were fitted with a two-state reaction model. The kinetic constants (ka, […], KD) of duplicates were geometrically averaged. Target residence time (τ) for the 1:1 binding model was calculated from the dissociation constant kd with the formula T=1/kd. Target residence for an induced fit model was calculated as described (Tummino and Copeland, 2008).

PDGFrB = PDGFrB (Homo sapiens, UniProt P09619); test: Binding kinetics assay (surface plasmon resonance) PDGFR-β; settings: SPR, 22 °C
Excerpt: as §1, §2

[1] = test system: KG-1 acute myeloid leukemia cells; test: Cell proliferation assay KG-1; settings: read-out: IC50 value, KG-1 cells, 72 hours
Description: KG-1 acute myeloid leukemia cells were purchased from American Type Culture Collection (cat. no. CCL-246, ATCC). Frozen stocks were thawed and cells were diluted in IMDM cell culture medium (cat. no. 31980022, Life Technologies), supplemented with 20% (v/v) fetal calf serum and 1% penicillin/streptavidin. 3200 cells per well (in 45 μl) were seeded in a white 384-well culture plate (cat. no. 781080, Greiner Bio-One) and allowed to rest for 24 hours at 37 °C, 95% humidity, and 5% CO2. 5 μl compound solution was added to the cells and incubation was continued for 72 hours (3 days), followed by addition of 24 μl ATPlite 1Step™ (PerkinElmer, Groningen, The Netherlands) solution was added to each well. Luminescence was recorded on an Envision multimode reader. The cell signal at the start of incubation was recorded separately in order to distinguish between cell population growth and cell death. In addition, maximum growth was determined by incubation of a duplicate without compound in the presence of 0.3% DMSO. Percentage growth was used as the main y-axis signal.
IC50s were fitted by non-linear regression using IDBS XLfit™5 using a 4-parameter logistic curve, yielding a maximum signal, minimum signal, hill-parameter and IC50.

RET = RET (Homo sapiens, UniProt P07949); test: Binding kinetics assay (surface plasmon resonance) RET; settings: SPR, 22 °C
Excerpt: as §1, §2

[2] = test system: REC-1 mantle cell lymphoma cells; test: Cell proliferation assay REC-1; settings: read-out: IC50 value, REC-1 cells, 120 hours
Description: REC-1 mantle cell lymphoma cells were purchased from Deutsche Sammlung von Mikroorganismen und Zellkulturen (cat. no. ACC 584, DSMZ) and cultured in RPMI-1640 cell culture medium (cat. no. 61870036, Life Technologies), supplemented with 18% (v/v) fetal bovine calf serum and 1% penicillin/streptavidin. 1200 cells per well (in 45 μl) were seeded in a white 384-well culture plate (cat. no. 781080, Greiner Bio-One) and allowed to rest for at least 5 hours at 37 °C, 95% humidity, and 5% CO2. 5 μl compound solution was added to the cells and incubation was continued for 120 hours (5 days), followed by addition of 24 μl ATPlite 1Step™ (PerkinElmer, Groningen, The Netherlands) solution was added to each well. Luminescence was recorded on an Envision multimode reader. The cell signal at the start of incubation was recorded separately in order to distinguish between cell population growth and cell death. In addition, maximum growth was determined by incubation of a duplicate without compound in the presence of 0.3% DMSO. Percentage growth was used as the main y-axis signal. IC50s were fitted by non-linear regression using IDBS XLfit™5 using a 4-parameter logistic curve, yielding a maximum signal, minimum signal, hill-parameter and IC50.

SRC = SRC (Homo sapiens, UniProt P12931); test: Binding kinetics assay (surface plasmon resonance) SRC; settings: SPR, 22 °C
Excerpt: as §1, §2

LCK = LCK (Homo sapiens, UniProt P06239); test: Binding kinetics assay (surface plasmon resonance) LCK; settings: SPR, 22 °C
Excerpt: as §1, §2

YES = YES (Homo sapiens, UniProt P07947); test: Binding kinetics assay (surface plasmon resonance) YES; settings: SPR, 22 °C
Excerpt: as §1, §2

AXL = AXL (Homo sapiens, UniProt P30530); test: Binding kinetics assay (surface plasmon resonance) AXL; settings: SPR, 22 °C
Excerpt: as §1, §2

ITK = ITK (Homo sapiens, UniProt Q08881); test: Binding kinetics assay (surface plasmon resonance) ITK; settings: SPR, 22 °C
Excerpt: as §1, §2

EGFR = EGFR (Homo sapiens, UniProt P00533); test: Binding kinetics assay (surface plasmon resonance) EGFR; settings: SPR, 22 °C
Excerpt: as §1, §2

C[C@@H]1CCn2nc(-c3ccc(NC(=O)Nc4cc(C(C)(C)C)on4)cc3)c3c(N)ncc(c32)/C=C/CCOCCC(=O)N1
Kd (Fms): 0.05 to 0.5 µM | Target residence time Tau (τ) (Fms): A (τ between 0.2 h and 1 h) | Kd (PDGFrB): 0.005 to 0.05 µM | Target residence time Tau (τ) (PDGFrB): A (τ between 0.2 h and 1 h)

Nc1cc(-c2nn3c4c(cnc(N)c24)/C=C/CCCCCCC(=O)N2CCC[C@@H]3C2)c(F)cc1Cl
IC50 [1]: < 0.3 µM | Kd (RET): < 0.005 µM | Target residence time Tau (τ) (RET): A (τ between 0.2 h and 1 h)

Nc1ncc2c3c1c(-c1ccc(C(=O)Nc4cc(C(F)(F)F)ccn4)cc1)nn3[C@@H]1CCC[C@H](C1)C(=O)NCCCCCCC2
IC50 [2]: < 0.05 µM

C[C@@H]1CCn2nc(-c3ccc(C(=O)Nc4cc(C(F)(F)F)ccn4)cc3)c3c(N)ncc(c32)/C=C/CCCCC(=O)N1
IC50 [2]: < 0.05 µM

CC(C)(C)c1cc(NC(=O)Cc2ccc(-c3nn4c5c(cnc(N)c35)/C=C/CCCCCCC(=O)N3CCC[C@@H]4C3)cc2)no1
IC50 [1]: < 0.3 µM | Kd (RET): 0.005 to 0.05 µM

C[C@@H]1CCn2nc(-c3ccc(NS(=O)(=O)c4ccccc4F)c(F)c3)c3c(N)ncc(c32)/C=C/CCOCCC(=O)N1
Kd (SRC): 0.005 to 0.05 µM | Target residence time Tau (τ) (SRC): A (τ between 0.2 h and 1 h) | Kd (LCK): 0.005 to 0.05 µM | Target residence time Tau (τ) (LCK): A (τ between 0.2 h and 1 h) | Kd (YES): < 0.005 µM | Target residence time Tau (τ) (YES): B (τ between 1 and 3 h) | Kd (AXL): 0.005 to 0.05 µM | Target residence time Tau (τ) (AXL): A (τ between 0.2 h and 1 h)

Nc1ncc2c3c1c(-c1ccc(C(=O)Nc4cc(C(F)(F)F)ccn4)cc1)nn3[C@@H]1CCC[C@H](C1)NC(=O)CCCC/C=C/2
IC50 [2]: < 0.05 µM

Cc1cc(NC(=O)c2cccc(-c3nn4c5c(cnc(N)c35)/C=C/CCOCCC(=O)N[C@@H]3CCC[C@@H]4C3)c2)ccc1C(C)C
Kd (ITK): 0.005 to 0.05 µM | Target residence time Tau (τ) (ITK): A (τ between 0.2 h and 1 h)

C[C@@H]1CCn2nc(-c3cnc4[nH]ccc4c3)c3c(N)ncc(c32)/C=C/CCCCCC(=O)N1
Kd (YES): < 0.005 µM | Target residence time Tau (τ) (YES): B (τ between 1 and 3 h)

Nc1ncc2c3c1c(-c1ccc(C(=O)Nc4cc(C(F)(F)F)ccn4)cc1)nn3[C@@H]1CCC[C@H](C1)C(=O)NCCCC/C=C/2
IC50 [2]: < 0.05 µM

Nc1ncc2c3c1c(-c1ccc(C(=O)Nc4cc(C(F)(F)F)ccn4)cc1)nn3[C@@H]1CCC[C@H](C1)NC(=O)COCC/C=C/2
IC50 [2]: < 0.05 µM

Nc1ncc2c3c1c(-c1ccc(C(=O)Nc4cc(C(F)(F)F)ccn4)cc1)nn3[C@@H]1CCC[C@H](C1)NC(=O)CCNCC/C=C/2
IC50 [2]: < 0.05 µM | Kd (ITK): < 0.005 µM | Target residence time Tau (τ) (ITK): A (τ between 0.2 h and 1 h)

C[C@@H]1CCn2nc(-c3ccc(NS(=O)(=O)c4ccccc4F)c(F)c3)c3c(N)ncc(c32)/C=C/CCCCCC(=O)N1
Kd (AXL): < 0.005 µM | Target residence time Tau (τ) (AXL): A (τ between 0.2 h and 1 h)

C[C@@H]1CCn2nc(-c3cnc4[nH]ccc4c3)c3c(N)ncc(c32)/C=C/CCOCCC(=O)N1
Kd (SRC): 0.005 to 0.05 µM | Target residence time Tau (τ) (SRC): B (τ between 1 and 3 h) | Kd (PDGFrB): 0.005 to 0.05 µM | Target residence time Tau (τ) (PDGFrB): A (τ between 0.2 h and 1 h) | Kd (LCK): < 0.005 µM | Target residence time Tau (τ) (LCK): A (τ between 0.2 h and 1 h) | Kd (YES): 0.005 to 0.05 µM | Target residence time Tau (τ) (YES): B (τ between 1 and 3 h)

Cc1cc(NC(=O)c2cccc(-c3nn4c5c(cnc(N)c35)/C=C/CCCCCC(=O)N[C@@H]3CCC[C@@H]4C3)c2)ccc1C(C)C
Kd (ITK): 0.005 to 0.05 µM | Target residence time Tau (τ) (ITK): B (τ between 1 and 3 h)

C[C@@H]1CCn2nc(-c3ccc(OCc4cccc(F)c4)c(Cl)c3)c3c(N)ncc(c32)/C=C/CCOCCC(=O)N1
Kd (EGFR): 0.005 to 0.05 µM | Target residence time Tau (τ) (EGFR): A (τ between 0.2 h and 1 h) | Kd (AXL): < 0.005 µM | Target residence time Tau (τ) (AXL): B (τ between 1 and 3 h)

Cc1cc(NC(=O)c2cccc(-c3nn4c5c(cnc(N)c35)/C=C/CCCCCNC(=O)[C@@H]3CCC[C@@H]4C3)c2)ccc1C(C)C
Kd (ITK): 0.005 to 0.05 µM | Target residence time Tau (τ) (ITK): A (τ between 0.2 h and 1 h)

Nc1ncc2c3c1c(-c1ccc(C(=O)Nc4cc(C(F)(F)F)ccn4)cc1)nn3[C@@H]1CCC[C@H](C1)NC(=O)CCCC/C=C\C2
IC50 [2]: < 0.05 µM

C[C@@H]1CCn2nc(-c3cccc(OCc4ccccc4)c3)c3c(N)ncc(c32)/C=C/CCOCCC(=O)N1
Kd (EGFR): < 0.005 µM | Target residence time Tau (τ) (EGFR): A (τ between 0.2 h and 1 h)

Nc1ncc2c3c1c(-c1ccc(C(=O)Nc4cc(C(F)(F)F)ccn4)cc1)nn3[C@@H]1CCCN(C1)C(=O)CCCCCC/C=C/2
IC50 [2]: < 0.05 µM
